For 79 molecules, inhibition results are on record in PubChem BioAssay AID920 (The Scripps Research Institute Molecular Screening Center, 2007).

The entries are a selection whose mix differs from that of the whole data set. Calls of active or inactive are those of the source.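 The calls were made as follows: active = inhibition above a set limit, the mean inhibition across all tested compounds plus 3 SD (cut at about 34% in these data); inactive = the rest.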

This assay can be described thus: blockers of IFN-gamma driven STAT1 reporter – cell-based, HTS, luciferase reporter, primary screen (AID 920).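 Also: 0% = IFN-gamma with DMSO and 100% = IFN-gamma with 300 µM nifuroxazide.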 To be noted: NIH 3T3 STAT1-luciferase reporter, luminescence, at 5.5 µM, active compounds read high.
As to `O=[N+]([O-])c1cc([N+](=O)[O-])c(CCNc2ccccc2)c([N+](=O)[O-])c1`, the inhibition (as a rule, the drop in the measured response relative to a control, in per cent) was inactive: 11.9%.
On to `CCc1nc2c(n1)c1c(non1O)c1c2no[n+]1[O-]`, for which the inhibition is inactive: 7.01%.
For the molecule `Cc1ccc(NP(=O)(Oc2ccccc2)Oc2ccccc2)nc1`, the inhibition is inactive: -6.31%.
The value for `CC(=O)N1C2C3N(C(C)=O)C1C1N(C(C)=O)C(C(N1C(C)=O)N3C(C)=O)N2C(C)=O` was inactive: 7.34%; that for `O=[N+]([O-])c1cccc2n[nH]nc12` was inactive: 1.82%; that for `COc1ccc(C2=NCC(CBr)S2)cc1` (centres undefined) was inactive: -6.23%.
On to `CC1CCN(C(=O)Oc2c(Cl)cc(Cl)c3cccnc23)CC1`, for which the inhibition is inactive: 16.1%.
The value for `CN(C)C(=O)OCCc1n(C)cc[n+]1C` was inactive: 0.78%.
Regarding `CC(C)=N/N=C(\N)N[N+](=O)[O-]`, the inhibition is inactive: 7.02%.
On to `CCN(/C(=N/P(=O)(N1CCOCC1)N1CCOCC1)N1CCOCC1)c1ccc(OC)cc1`, for which the inhibition is inactive: 2.87%.
As for `O=[N+]([O-])c1ncn(CCn2ncnc2[N+](=O)[O-])n1`, the inhibition is inactive: 7.39%.
As for `Cc1cc(SC(NC(=O)c2ccc(F)cc2)C(Cl)(Cl)Cl)ncn1` (centres undefined), the inhibition is inactive: 3.45%.
Next, `CCOP(=O)(Nc1ccccc1)OCC`: inactive: -2.21%; `CCN(N=Nc1nonc1N)c1nonc1N`: inactive: 7.45%; `CN1CCCC(OC(=O)C(c2ccccc2)c2ccccc2)C1` (centres undefined): inactive: -7.29%.
With `Clc1ccc(Cl)c(NC2=NCC(CBr)S2)c1` (centres undefined), the inhibition was inactive: -5.44%.
On to `COc1ccccc1OP(=O)(Nc1ccc(C)cn1)Oc1ccccc1OC`, for which the inhibition is inactive: -0.01%.
`Cc1ccc(N/C(=N/P(=O)(N2CCOCC2)N2CCOCC2)N2CCOCC2)cc1`: the inhibition was inactive: -2.95%.
Turning to `NC(=O)c1cc([N+](=O)[O-])cc([N+](=O)[O-])c1N`, the inhibition is inactive: 0.99%.
As for `O=C(NC(Sc1ccncn1)C(Cl)(Cl)Cl)c1ccccc1` (centres undefined), the inhibition is inactive: -1.82%.
Regarding `Cc1c2non([O-])c-2c(C)[n+](=O)[n+]1[O-]`, the inhibition was inactive: 10.3%.
Next, `Oc1ccccc1CNc1ccccn1`: inactive: -3.37%; `CC(C)CC(=O)NC(Sc1ccc(Cl)cc1)C(Cl)(Cl)Cl` (centres undefined): inactive: -9.53%.
With `CC(C)(C)C(=O)NC(Sc1ccccc1)C(Cl)(Cl)Cl` (centres undefined), the inhibition was inactive: 8.77%.
With `CCOc1ccc(C2=NCC(CBr)S2)cc1` (centres undefined), the inhibition was inactive: -2.96%.
Consider `O=P1(Nc2nc3ccc(Cl)cc3s2)COc2ccccc2O1` (centres undefined), for which the inhibition is inactive: -6.23%.
Next, `CC(=O)Nc1ccc(Oc2c([N+](=O)[O-])cc([N+](=O)[O-])cc2[N+](=O)[O-])cc1`: inactive: 3.73%.
Next, `CCOC(=O)NC(Sc1ccccc1)C(Cl)(Cl)Cl` (centres undefined): inactive: 14.1%; `c1ccc(-c2nn[nH]n2)c(-c2nn[nH]n2)c1`: inactive: -2.02%; `O=C(NC1CCS(=O)(=O)C1)NP(=S)(Oc1ccccc1)Oc1ccccc1` (centres undefined): inactive: -2.33%.
Turning to `CCNC(=S)/N=C(\N)N[N+](=O)[O-]`, the inhibition was inactive: -0.24%.
Next, `O=c1c2cc([N+](=O)[O-])ccc2[nH]c2c([N+](=O)[O-])cc([N+](=O)[O-])cc12`: inactive: 16.8%; `CCC(=O)N1C2C3N(C(=O)CC)C1C1N(C(=O)CC)C(C(N1C(=O)CC)N3C(=O)CC)N2C(=O)CC`: inactive: -0.17%.
The value for `CC(=O)NC(SC(=S)N(CC(C)C)CC(C)C)C(Cl)(Cl)Cl` (centres undefined) was inactive: 0.73%.
Next, `Cc1ccc(OP(=O)(Nc2ccccn2)Oc2ccc(C)cc2)cc1`: inactive: -3.68%; `COC(=O)c1cc2c(s1)N=C(c1ccccc1)N(C)P2(=O)N1CCOCC1` (centres undefined): inactive: 3.73%; `O=P(Nc1ccccn1)(c1ccc(Br)cc1)c1ccc(Br)cc1`: inactive: 7.73%.
Regarding `O=C(OC1CN2CCC1CC2)c1cccc(Cl)c1` (centres undefined), the inhibition is inactive: -8.49%.
The value for `C(Cc1nn[nH]n1)Cc1nn[nH]n1` was inactive: -4.42%; that for `CC(=O)NC(SC(=S)N(C)C)C(Cl)(Cl)Cl` (centres undefined) was inactive: -5.07%; that for `c1nnnn1CCn1cnnn1` was inactive: 0.98%.
`O=P(Nc1nccs1)(c1ccccc1)c1ccccc1`: the inhibition is inactive: -1.8%.
For the molecule `CC(C)C(=O)NC(Sc1ccccc1)C(Cl)(Cl)Cl` (centres undefined), the inhibition was inactive: -3.58%.
Regarding `Clc1n[nH]nc1-c1nn[nH][15n]1`, the inhibition is inactive: -1.69%.
In the case of `O=P1(Nc2ccccn2)COc2ccccc2OC1`, the inhibition is inactive: -0.82%.
With `CC(C)/C=N\N=C(\N)N[N+](=O)[O-]`, the inhibition is inactive: -2.95%.
On to `CC1(CBr)Cn2c(nc3ccccc3c2=O)S1` (centres undefined), for which the inhibition is inactive: -2.65%.
Next, `CN(C)C1(CNC(=O)c2ccc(S(C)(=O)=O)cc2)CCCCC1`: inactive: -6.83%.
In the case of `CC1CCC(C(C)C)C(OP(=O)(Nc2ccccn2)c2ccccc2)C1` (centres undefined), the inhibition is inactive: -1.67%.
Next, `Cc1nn(-c2ccccc2)c2c1P(=O)(N1CCOCC1)N(C)C(c1ccccc1)=N2` (centres undefined): inactive: 4.51%; `Cc1ccc(OCC(=O)OC2CN3CCC2CC3)cc1` (centres undefined): inactive: 7.68%; `O=P1(Nc2ccc(Br)cn2)COc2ccccc2OC1`: inactive: 3.88%.
The value for `O=P1(Nc2ncccn2)COc2ccccc2OC1` was inactive: -4.33%; that for `O=P(Nc1nccs1)(Oc1ccccc1)Oc1ccccc1` was inactive: 6.8%.
Next, `O=P(Nc1nccs1)(c1ccccc1)c1nc2ccccc2s1` (centres undefined): inactive: 6.37%.
As to `CCOP1(=S)c2c(C)nn(CCC#N)c2N=C(c2ccccc2F)N1C` (centres undefined), the inhibition was inactive: -2.99%.
Next, `CCOP1(=S)c2c(C)nn(CCC#N)c2N=C(c2ccc(F)cc2)N1C` (centres undefined): inactive: 5.41%; `O=[N+]([O-])c1ccc2c(c1)nnn2O`: inactive: 6.42%; `Cc1cccc(OCC(=O)OC2CN3CCC2CC3)c1` (centres undefined): inactive: -4.56%.
Next, `COc1cc(C(=O)NCC2(N3CCOCC3)CCCCC2)cc(Cl)c1OC(C)C`: inactive: 0.62%; `CCOP(=O)(Nc1cccc2ccccc12)OCC`: inactive: 4.65%.
Next, `COc1cc(C2NCCC3(OCCO3)C2(C)C)cc(OC)c1OC` (centres undefined): inactive: 5.7%; `Cc1ccc(NCCc2c([N+](=O)[O-])cc([N+](=O)[O-])cc2[N+](=O)[O-])cc1`: inactive: 9.92%.
As for `COc1ccc2nc(NP(=O)(c3ccccc3)c3ccccc3)sc2c1`, the inhibition was inactive: 2.4%.
Next, `Cc1c2c(nc3ccccc13)SC(C(Cl)Cl)C2` (centres undefined): inactive: -10.2%; `Cc1cc(=O)[nH]c(N[N+](=O)[O-])n1`: inactive: 2.49%; `O=C(OC1CN2CCC1CC2)C12CC3CC(CC(C3)C1)C2` (centres undefined): inactive: 5.82%.
The value for `COc1ccc(N/C(=N/P(=O)(N2CCOCC2)N2CCOCC2)N2CCOCC2)cc1` was inactive: -3.54%; that for `Cc1ccc2nc3c(c(C)c2c1)CC(C(Cl)Cl)S3` (centres undefined) was inactive: -24.1%.
The value for `O=[N+]([O-])c1cc([N+](=O)[O-])c(-c2ccn[nH]2)s1` was inactive: 12.9%; that for `CC(C)NC(=O)NP(=O)(Oc1ccccc1)Oc1ccccc1` was inactive: -6.53%; that for `CCN(CC)C(=S)SC(NC=O)C(Cl)(Cl)Cl` (centres undefined) was inactive: 5.84%.
On to `ClCCSc1nnc(-c2cccnc2)o1`, for which the inhibition was inactive: -5.4%.
Next, `Cc1cc(SC(NC(=O)c2ccccc2)C(Cl)(Cl)Cl)nc(C(C)C)n1` (centres undefined): inactive: 0%.
The value for `Cc1cc(SC(NC=O)C(Cl)(Cl)Cl)ncn1` (centres undefined) was inactive: 2.49%.
Turning to `O=P(Nc1ccccn1)(c1cccc2ccccc12)c1cccc2ccccc12`, the inhibition is inactive: -8.44%.
In the case of `O=C(COc1ccccc1)OC1CN2CCC1CC2` (centres undefined), the inhibition was inactive: 7.01%.
The value for `COP1(=S)c2c(C)nn(CCC#N)c2N=C(c2ccc(F)cc2)N1C` (centres undefined) was inactive: 0.16%.
The value for `CCC(C)N(CC(C)C)C(=S)SC(NC(C)=O)C(Cl)(Cl)Cl` (centres undefined) was inactive: -4.43%.
